From patent US20100184820A1, “COMBINATIONS COMPRISING STAUROSPORINES” (priority 2006, published 2010)

System: HMC-1.1 cells
Assay: 3H-thymidine incorporation assay
Assay type: cell-based, human

Structure (SMILES): Nc1nc(Cl)nc2c1ncn2[C@H]1C[C@H](O)[C@@H](CO)O1 [2CdA, 2-chlorodeoxyadenosine]
- cell growth / proliferation (in words): no significant effect
